{"sequences": {"note": "Protein sequences, listed by entry. Tags and fused reporters are not part of them. Lines headed by an entry give the natural chain unless they say otherwise; changes in a name come on top.", "UniProt P41144": "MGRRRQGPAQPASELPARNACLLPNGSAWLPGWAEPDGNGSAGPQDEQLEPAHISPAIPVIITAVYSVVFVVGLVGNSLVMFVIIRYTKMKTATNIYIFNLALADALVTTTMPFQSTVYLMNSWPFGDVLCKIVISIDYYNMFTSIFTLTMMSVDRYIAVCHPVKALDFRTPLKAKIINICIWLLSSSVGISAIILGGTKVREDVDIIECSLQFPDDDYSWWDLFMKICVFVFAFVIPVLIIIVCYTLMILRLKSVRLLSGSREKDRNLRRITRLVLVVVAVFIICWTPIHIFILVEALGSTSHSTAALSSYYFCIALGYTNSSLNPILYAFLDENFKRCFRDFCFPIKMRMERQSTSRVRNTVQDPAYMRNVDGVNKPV"}, "source": "ChEMBL document CHEMBL2417403", "about": "“N-terminal guanidinylation of TIPP (Tyr-Tic-Phe-Phe) peptides results in major changes of the opioid activity profile” (Bioorg Med Chem Lett, 2013)", "target": "Kappa-type opioid receptor (Cavia porcellus, UniProt P41144)", "experiment": "Displacement of [3H]U69,593 from kappa opioid receptor in guinea pig brain membranes", "assay_type": "cell membranes, Membrane", "summary_of_the_method": "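Competitive displacement of tritiated radioligands, with affinities reported as Ki. Mu sites were labelled with [³H]DAMGO and delta sites with [³H]DSLET, both on rat brain membranes. Kappa sites were labelled with [³H]U69,593 on guinea pig brain membranes.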"}
{"smiles": "N[C@@H](Cc1ccc(O)cc1)C(=O)N1Cc2ccccc2C[C@H]1CN[C@@H](Cc1ccccc1)C(=O)N[C@@H](Cc1ccccc1)C(=O)O", "values": [{"measurement": "Ki", "result": "> 1000", "unit": "nM"}]}
